The data set deals with TNBC cells. Nature of the data set: In vitro anti-TNBC cytotoxicity (MDA-MB-231, MDA-MB-468 and 4T1). The note with it: compared to free drugs and single-payload ADCs / other tested TLR7/8 agonists.

Consider one compound from patent publication US20260345802A1, “ANTIBODY-DRUG CONJUGATES AND LINKERS AND METHODS OF USE THEREOF” (priority 2023, published 2026).

Consider `CCCCc1nc2c(N)nc3ccccc3c2n1Cc1ccc(CN)cc1`, for which the “cytotoxicity or potency to TNBC cells” value is listed as “high TNBC cytotoxicity”.
